Experimental data reported in paper PMC9885530, “Identification of Natural Products Inhibiting SARS-CoV-2 by Targeting Viral Proteases: A Combined in Silico and in Vitro Approach” (Journal of Natural Products, 2023).

Molecular target: SARS-CoV-2 M^pro (Severe acute respiratory syndrome coronavirus 2, UniProt P0DTD1)
Assay: biochemical
Settings: read-out: SARS-CoV-2 M^pro enzyme inhibition (%) 100 μM

## CC(C)=CCc1cc(-c2coc3cc(O)ccc3c2=O)ccc1O [Compound 20, neobavaisoflavone]
  inhibition at 100 µM: 84.9 ± 6.3%
